Assay results: paper PMC6279831, “Reconstructing the evolutionary history of F420-dependent dehydrogenases” (Scientific Reports, 2018)

Amino acid sequences for entries named in this document (tags omitted). Residues count along the entry.
UniProt A0A010YY07, 1-332: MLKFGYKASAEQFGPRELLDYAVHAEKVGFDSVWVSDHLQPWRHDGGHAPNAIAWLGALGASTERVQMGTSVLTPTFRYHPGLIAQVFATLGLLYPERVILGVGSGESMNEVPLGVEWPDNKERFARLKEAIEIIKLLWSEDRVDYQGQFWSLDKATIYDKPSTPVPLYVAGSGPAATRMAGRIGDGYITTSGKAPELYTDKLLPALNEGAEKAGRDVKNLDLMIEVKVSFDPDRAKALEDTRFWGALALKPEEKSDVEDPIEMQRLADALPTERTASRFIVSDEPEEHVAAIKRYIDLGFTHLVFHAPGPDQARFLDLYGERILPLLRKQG

Legend:
AncD1 = experiment: fluorescence quenching of cofactor (ex […] nm, em […] nm), one-site fit; details: read-out: AncD1 / kcat [s^-1]; 0.1 µM cofactor, 25 °C; apparent KD
FGD-Cryar (FSD-Cryar) = FGD-Cryar (FSD-Cryar) (Cryptosporangium arvum, UniProt A0A010YY07); experiment: as above; details: read-out: FGD-Cryar (FSD-Cryar) / kcat [s^-1]; 0.1 µM cofactor, 25 °C; apparent KD

Structure (SMILES): C[C@H](OP(=O)(O)OC[C@@H](O)[C@@H](O)[C@@H](O)Cn1c2cc(=O)ccc-2cc2c(=O)[nH]c(=O)[nH]c21)C(=O)N[C@@H](CCC(=O)N[C@@H](CCC(=O)O)C(=O)O)C(=O)O
- Kd (AncD1): 1600 nM
- Kd (FGD-Cryar (FSD-Cryar)): 2200 nM
